Our source for the Displacement and Ratio values is ChEMBL document CHEMBL1144357, “Synthesis, biological evaluation, and molecular modeling of ribose-modified adenosine analogues as adenosine receptor agonists” (J Med Chem, 2005).

Experiment [1] relates to Adenosine receptor A2a, Bos taurus. Nature of the experiment: Percent displacement of [3H]CGS-21680 binding to adenosine A2A receptors of bovine striatal membranes at 0.00005 M. To be noted: 0.00001 M.
The subject of experiment [2] is Adenosine receptor A3, Bos taurus. Kind of experiment: Percent displacement of [125I]AB-MECA binding to adenosine A3 receptors of bovine cortical membranes at 0.00005 M. To be noted: 0.00001 M.
The subject of experiment [3] is Adenosine receptors A1 & A3 (Bos taurus). Nature of the experiment: Relative affinities for adenosine A3 and A1 receptors (ratio of KiA3/KiA1).

In the case of `C[C@@]1(O)[C@@H](CO)O[C@@H](n2cnc3c(N)ncnc32)[C@@H]1O`, the values for the Displacement in experiment [1] and in experiment [2] were 4% and 0%, respectively.
`CCNC(=O)[C@H]1O[C@@H](n2cnc3c(N)ncnc32)[C@](C)(O)[C@@H]1O`: in experiment [3], the Ratio came out at 0.54.
